Data as given in BindingDB's records for doi:10.1021/jm000541z (Abbott Laboratories, 2001).

Target: Alpha-1B adrenergic receptor (Mesocricetus auratus) (UniProt P18841)
Experiment: Binding affinity to hamster alpha-1B adrenergic receptor

- pKi: 8.89
Structure (SMILES): COc1cccc2c1CC[C@H]1CN(CCn3c(=O)[nH]c4c(C)csc4c3=O)C[C@@H]21 [3-[2-(6-Methoxy-1,3,3a,4,5,9b-hexahydro-benzo[e]isoindol-2-yl)-ethyl]-7-methyl-1H-thieno[3,2-d]pyrimidine-2,4-dione]

pKi: −log10 of the molar value.
